# Data reported in PubChem BioAssay AID1259389 (Center for Chemical Genomics, University of Michigan, 2018).
# This is a selection; strong and weak results do not stand in their true shares. Active and inactive are the calls of the source. The calls were made as follows: active = z-score of 3 or more in at least 2 runs; inactive = the rest.
# Assay: TAR RNA-Tat peptide displacers, HIV-1, primary screen, biochemical, FRET, FAM/TAMRA-labeled Tat (AID 1259389); also: test concentration not given here
# Conditions: HIV-1 TAR RNA, Tat peptide displacement FRET; stronger effect = higher value
row,SMILES,z-score
1,CN(CCCl)CCCl,inactive: 4.77
